Experimental findings from ChEMBL document CHEMBL4699668, “Discovery and Structure-Activity Relationships of Novel Template, Truncated 1'-Homologated Adenosine Derivatives as Pure Dual PPARγ/δ Modulators” (J Med Chem, 2020) are described below.

The assay deals with T1, Peroxisome proliferator-activated receptor delta (Homo sapiens) (UniProt Q03181).
T1 sequence (whole entry): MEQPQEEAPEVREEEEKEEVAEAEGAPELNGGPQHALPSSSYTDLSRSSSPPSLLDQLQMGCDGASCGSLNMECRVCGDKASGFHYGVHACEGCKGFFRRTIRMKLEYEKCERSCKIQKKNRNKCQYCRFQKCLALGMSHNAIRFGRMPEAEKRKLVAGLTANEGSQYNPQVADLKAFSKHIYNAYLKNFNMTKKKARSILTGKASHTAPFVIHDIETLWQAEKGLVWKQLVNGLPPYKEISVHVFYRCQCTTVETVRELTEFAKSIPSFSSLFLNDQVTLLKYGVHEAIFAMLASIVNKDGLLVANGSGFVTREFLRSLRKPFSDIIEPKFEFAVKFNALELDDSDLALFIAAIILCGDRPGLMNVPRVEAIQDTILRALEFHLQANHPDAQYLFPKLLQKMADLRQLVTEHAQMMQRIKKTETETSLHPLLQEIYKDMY
The note with it: filed as antagonist, dose 10.0 µM.

Calls of active or inactive are those of the source. No cut-off for these calls is given here.

With `O[C@@H]1[C@H](O)CS[C@H]1Cn1cnc2c(NCc3cccc(I)c3)nc(Cl)nc21`, the result was Active.
